Results on one substance are retold here after patent US11395798B2, “O/W type emulsion” (NOF CORPORATION, priority 2015, dated 2022).

A short description of data set [1]: retentivity in blood of Dex-CHEMS / Dex-Pal emulsions (HPLC of plasma). In kind it is in vivo. Particulars: emulsion composed with B-2, ICR mouse, intravenous. As to the method: When the lipid composition was 3 mM B-2/DOPC/Chol=3/4/3+10 mol % Dex-CHEMS+10 mol % DMG-PEG2000+10 mol % DSG-PEG2000 (1000 μL), a lipid solution was mixed in vitro as follows.
The solvent was evaporated once and the residue was redissolved in 100 μL CHCl3. N2 gas was blown to form a lipid thin film on the wall of a test tube. After a few hours of a vacuum treatment by a desiccator, 20 mM Maric acid buffer (30 mM NaCl, pH 3.0, 1000 μL) was added, and the mixture was incubated for 10 min at room temperature. After sonication with a bath-type sonicator for 30 sec, the mixture was sonicated by a probe-type sonicator for 5 min (output power: 30%). After centrifugation at 4° C., 15000 g for 5 min, the supernatant was collected. Neutralization was performed by adding an equal amount of 36 mM NaOH/PBS. […]
Plasma (16.5 μL) centrifuged at 4° C., 1000 g for 10 min was transferred to another 1.5 mL tube. […] Using HPLC, the peak area of Dex-CHEMS and the peak area of 4 MU-Pal were calculated. The peak area of 0.5, 0.25, 0.125, 0.0625 nmol Dex-CHEMS was calculated by a similar method using HPLC and used as an analytical curve. […]
The residual rate in blood at 1 hr later was calculated with that 1 min after the administration as 100%. Similar to the above-mentioned, an emulsion composed of B-2 and dexamethasone palmitate (Dex-Pal) was prepared and evaluated similarly.

The conditions of data set [2]: water/octanol; cited from earlier work.

In the case of dexamethasone palmitate [Dex-Pal], the “residual in blood at 1 hr (1 min after administration as 100%)” value in data set [1] was “disappeared from blood”. Also, the “Log Pow” value in data set [2] is on record as 8.13.
